{"source": "paper PMC7587437", "about": "“Hfq and RNase R Mediate rRNA Processing and Degradation in a Novel RNA Quality Control Process” (mBio, 2020)", "biological_target": "T1, His6-RNase R (Escherichia coli, UniProt P21499 1-813)", "T1 construct": "3'-5' exoribonuclease RNase R (rnr), Escherichia coli, about 92 kDa; also called His-tagged RNase R; purified RNase R; source: purified on Ni-NTA columns (GE Healthcare)", "T1 sequence (looked up)": "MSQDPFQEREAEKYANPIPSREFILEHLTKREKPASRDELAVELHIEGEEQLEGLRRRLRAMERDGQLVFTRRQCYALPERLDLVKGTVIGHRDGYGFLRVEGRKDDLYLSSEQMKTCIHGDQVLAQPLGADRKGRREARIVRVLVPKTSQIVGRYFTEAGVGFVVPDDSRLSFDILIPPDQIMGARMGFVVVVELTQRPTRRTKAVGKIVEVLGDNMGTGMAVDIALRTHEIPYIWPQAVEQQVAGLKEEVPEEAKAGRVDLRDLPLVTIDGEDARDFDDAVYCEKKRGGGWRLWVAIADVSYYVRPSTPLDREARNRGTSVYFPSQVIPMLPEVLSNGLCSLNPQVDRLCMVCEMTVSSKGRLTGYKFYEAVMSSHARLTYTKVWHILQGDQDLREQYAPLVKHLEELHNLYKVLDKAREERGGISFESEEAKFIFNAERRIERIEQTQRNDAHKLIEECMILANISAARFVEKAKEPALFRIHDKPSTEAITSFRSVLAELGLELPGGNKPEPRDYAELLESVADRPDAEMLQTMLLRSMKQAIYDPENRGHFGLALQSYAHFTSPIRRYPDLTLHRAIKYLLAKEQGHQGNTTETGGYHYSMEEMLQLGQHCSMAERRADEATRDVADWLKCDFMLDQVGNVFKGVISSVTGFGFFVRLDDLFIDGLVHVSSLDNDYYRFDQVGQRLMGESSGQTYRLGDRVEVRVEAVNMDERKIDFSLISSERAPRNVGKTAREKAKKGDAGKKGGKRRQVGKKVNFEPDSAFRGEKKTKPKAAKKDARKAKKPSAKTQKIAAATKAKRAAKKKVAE", "assay": "far-Western, overlay or dot blot; purified His6-RNase R (0.01-0.5 ug) resolved on 10% SDS-PAGE, blotted to nitrocellulose and renatured in situ; membrane incubated with purified His6-Hfq in solution (45 nM); detected with anti-Hfq antiserum", "conditions": "both partners purified", "data": [{"binder": "His6-Hfq (natural protein, Escherichia coli, UniProt P0A6X3 1-102, looked up, RNA chaperone Hfq (hfq), Escherichia coli; also called His-tagged Hfq; purified Hfq; source: purified on Ni-NTA columns (GE Healthcare)) MAKGQSLQDPFLNALRRERVPVSIYLVNGIKLQGQIESFDQFVILLKNTVSQMVYKHAISTVVPSRPVSHHSNNAGGGTSSNYHHGSSAQNTSAQQDSEETE", "values": [{"measurement": "binding result", "value": "binds"}]}]}
